In patent US20240425478A1, “CYCLOPENTYLPYRAZOLE CDK2 INHIBITORS” (Genentech, Inc., priority 2021, published 2024) one finds Ki data, which are given here for one molecule.

Chains of the proteins cited; added tags and fusions are not shown. Lines headed by an entry give the natural chain unless they say otherwise; changes in a name come on top.
UniProt P11802: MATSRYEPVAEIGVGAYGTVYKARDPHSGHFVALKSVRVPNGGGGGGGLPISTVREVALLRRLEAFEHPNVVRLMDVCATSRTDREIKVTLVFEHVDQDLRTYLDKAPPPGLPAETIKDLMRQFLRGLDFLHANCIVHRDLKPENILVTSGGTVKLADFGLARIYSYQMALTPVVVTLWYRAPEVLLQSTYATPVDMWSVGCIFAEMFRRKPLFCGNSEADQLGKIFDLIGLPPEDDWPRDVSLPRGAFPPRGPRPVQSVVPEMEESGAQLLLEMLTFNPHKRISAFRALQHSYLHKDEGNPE

This test addresses T1, Cyclin Dependent Kinase 4/Cyclin D3 (CDK4-cycD3) (Homo sapiens, UniProt P11802).
T1 construct: purchased Carna Biosciences 04-105
As to the kind of experiment: CDK4-cycD3 TR-FRET (LANCE) enzyme assay. The test is classed as biochemical. How it is done: Cyclin Dependent Kinase 1/Cyclin A2 (CDK1-cycA2), Cyclin Dependent Kinase 2/Cyclin E1 (CDK2-cycE1), Cyclin Dependent Kinase 4/Cyclin D3 (CDK4-cycD3) and Cyclin Dependent Kinase 6/Cyclin D3 (CDK6-cycD3) enzyme assays were carried out as described below.
(iii) CDK4-cycD3 TR-FRET (LANCE®)
An Echo acoustic dispenser is used to create dose responses of compound dissolved in DMSO into a 384-well microplate. A 5 μL volume of enzyme mix is added to the well, and pre-incubated with compound for 30 minutes. […] Buffer conditions are 50 mM HEPES, pH 7.5, 10 mM MgCl2, 2 mM TCEP, 0.05% BGG and 0.01% Brij 35. The reaction is quenched with 5 μL of EDTA in detection buffer (15 mM [EDTA final]). Finally, a 5 μL TR-FRET detection mix is added to the quenched reaction, which includes Europium labeled anti-phospho-4E-BP1. […] Signal is a ratio of the Acceptor and Donor fluorescence. Inhibition constants are calculated via the Morrison equation.
In general terms: TR-FRET usually uses a lanthanide donor and a delayed reading to cut background.

For orientation: Ki means a dissociation constant, usually derived from enzyme kinetics or from competition with a known ligand. Low readings indicate a stronger hold on the target, high ones a looser hold on the target. `CC(C)NC(=O)O[C@@H]1CC[C@H](c2cc(Nc3ccn(C)n3)n[nH]2)C1` [Comparator C, reference compound] had a Ki of 290 nM.
